# What was measured:
# Protein sequences, listed by entry. Tags and fused reporters are not part of them. Residues count along the entry.
# UniProt P11362, 478-767 limits assumed: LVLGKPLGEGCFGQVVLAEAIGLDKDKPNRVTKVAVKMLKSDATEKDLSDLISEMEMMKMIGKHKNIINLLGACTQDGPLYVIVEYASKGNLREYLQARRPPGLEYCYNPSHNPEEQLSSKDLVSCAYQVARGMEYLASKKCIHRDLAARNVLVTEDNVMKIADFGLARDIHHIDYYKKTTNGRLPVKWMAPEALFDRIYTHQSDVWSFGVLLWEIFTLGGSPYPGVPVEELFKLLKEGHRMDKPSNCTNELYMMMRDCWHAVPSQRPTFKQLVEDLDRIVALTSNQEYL
# UniProt P05622, 599-961 limits assumed: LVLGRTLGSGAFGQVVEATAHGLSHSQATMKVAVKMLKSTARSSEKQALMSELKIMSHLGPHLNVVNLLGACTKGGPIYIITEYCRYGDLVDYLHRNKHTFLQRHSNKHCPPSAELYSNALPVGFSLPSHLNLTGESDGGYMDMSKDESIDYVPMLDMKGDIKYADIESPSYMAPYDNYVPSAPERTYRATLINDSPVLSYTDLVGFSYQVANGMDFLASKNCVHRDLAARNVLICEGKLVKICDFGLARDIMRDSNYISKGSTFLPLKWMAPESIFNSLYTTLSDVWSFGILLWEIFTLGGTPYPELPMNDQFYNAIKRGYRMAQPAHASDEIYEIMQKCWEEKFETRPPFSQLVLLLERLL
# [1] = biological target: T1, FGF-1 (flg) receptor tyrosine kinase (Homo sapiens, UniProt P11362); experiment: FGF receptor tyrosine kinase assay; format: biochemical; settings: read-out: FGF IC50; intracellular tyrosine kinase domain, SF9 lysate
# T1 construct: amplify a fragment of DNA that codes for the intracellular tyrosine kinase domain; made in house; host or cells: SF9 insect cells (baculovirus)
# Procedure: (§1) The assays used to determine these activities were carried out as follows:
# (§2) PDGF and FGF Receptor Tyrosine Kinase Assays
# (§3) PCR primers were designed to amplify a fragment of DNA that codes for the intracellular tyrosine kinase domain. The fragment was inserted into a baculovirus vector, cotransfected with AcMNPV DNA, and the recombinant virus isolated. SF9 insect cells were infected with the virus to overexpress the protein, and the cell lysate was used for the assay. Assays were performed in 96-well plates (100 μL/incubation/well), and conditions were optimized to measure the incorporation of ^32P from γ^32P-ATP into a glutamate-tyrosine co-polymer substrate. Briefly, to each well was added 82.5 μL of incubation buffer containing 25 mM Hepes (pH 7.0), 150 mM NaCl, 0.1% Triton X-100, 0.2 mM PMSF, 0.2 mM Na3VO4, 10 mM MnCl2, and 750 μg/mL of Poly (4:1) glutamate-tyrosine followed by 2.5 μL of inhibitor and 5 μL of enzyme lysate (7.5 μg/μL FGF-TK or 6.0 μg/μL PDGF-TK) to initiate the reaction. Following a 10 minute incubation at 25° C., […] of γ^32P-ATP (0.4 μCi plus 50 μM ATP) was added to each well, and samples were incubated for an additional 10 minutes at 25° C. […] Nonspecific activity was defined as radioactivity retained on the filters following incubation of samples with buffer alone (no enzyme). […]
# [2] = biological target: T2, PDGF-β receptor tyrosine kinase (Mus musculus, UniProt P05622); experiment: PDGF receptor tyrosine kinase assay; format: biochemical; settings: read-out: PDGF IC50; intracellular tyrosine kinase domain, SF9 lysate
# T2 construct: amplify a fragment of DNA that codes for the intracellular tyrosine kinase domain; made in house; host or cells: SF9 insect cells (baculovirus)
# Procedure: as §1, §2, §3
smiles,measurement,setting,value
CCN(CC)CCOc1ccc(Nc2ncc3c(=O)n(Cc4ccc(OC)cc4)c(=O)n(C(C)C)c3n2)cc1 [Example 74],IC50,[1],> 50 µM
same,IC50,[2],> 50 µM

# Source: US7501425B1, “Bicyclic pyrimidines and bicyclic 3,4-dihydropyprimidines as inhibitors of cellular proliferation” (Warner Lambert Company, priority 1999, dated 2009)
